The assay has as its target CHK1 (Homo sapiens (Human), UniProt O14757). In words: Inhibitor potency vs. CHK1 (Assay 1A DELFIA or Assay 1B Caliper format). It is filed as biochemical. The protocol:
Assay 1A: Determination of Inhibitor Potency vs. CHK1 in DELFIA Assay Format
CHK1 kinase function was measured in a DELFIA® assay in order to monitor phosphorylation of a CDC25C peptide using a specific phospho antibody. […] The reaction mixture was incubated for 30 minutes at room temperature and then stopped by the addition of buffer (125 μL) containing 40 mM EDTA, 0.05% Tween 20, 0.1% BSA in TBS (10× concentrate, Sigma). An aliquot (100 μL) of the stopped reaction mixture was transferred to a black neutravidin-coated plate (Perbio) and incubated for 1 hour on a shaker (Titertek, Flow Laboratories) at room temperature. […] The plates were washed a further four times with wash buffer before the addition of enhancement solution (100 μL/well, PerkinElmer Life Sciences).
Assay 1B: Determination of Inhibitor Potency Vs. CHK1 in Caliper Assay Format
CHK1 kinase activity was measured in a microfluidic assay that monitors the separation of a phosphorylated product from its substrate. […] For each test compound a 50 μM stock concentration in 100% DMSO was used. […] The plate was sealed and centrifuged (1 minutes, 1000 rpm) before incubation for one hour at room temperature. The reaction was stopped by the addition of separation buffer (90 μL). […] IC50 values were calculated in GraphPad Prism5 using a non linear regression fit of the log (inhibitor) vs. response with variable slope equation.

Chains of the proteins cited; added tags and fusions are not shown. Lines headed by an entry give the natural chain unless they say otherwise; changes in a name come on top.
UniProt O14757: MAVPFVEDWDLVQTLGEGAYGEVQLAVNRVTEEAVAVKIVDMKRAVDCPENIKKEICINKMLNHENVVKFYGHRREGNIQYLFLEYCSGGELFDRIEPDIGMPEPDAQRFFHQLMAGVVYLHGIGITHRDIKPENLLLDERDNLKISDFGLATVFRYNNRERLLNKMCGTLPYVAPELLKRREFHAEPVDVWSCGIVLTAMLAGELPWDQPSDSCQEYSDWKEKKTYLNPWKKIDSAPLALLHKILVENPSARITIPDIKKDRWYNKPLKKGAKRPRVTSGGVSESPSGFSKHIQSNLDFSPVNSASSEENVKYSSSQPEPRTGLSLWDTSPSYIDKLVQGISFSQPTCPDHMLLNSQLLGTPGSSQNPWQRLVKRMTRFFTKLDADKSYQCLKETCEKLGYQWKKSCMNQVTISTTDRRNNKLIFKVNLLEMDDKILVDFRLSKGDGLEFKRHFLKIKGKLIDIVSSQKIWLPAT

Data on 1 molecule can be found in patent US9403797B2, “5-(pyridin-2-yl-amino)-pyrazine-2-carbonitrile compounds and their therapeutic use” (Cancer Research Technology Limited, priority 2011, dated 2016).

A value given as a limit tells only on which side of the number the result lay.

The molecule `CNc1cc(Nc2cnc(C#N)c(O[C@@H]3CCNC3)n2)ncc1C(=O)OC` [PAPC-B-10, (R)-Methyl 6-((5-cyano-6-(pyrrolidin-3-yloxy)pyrazin-2-yl)amino)-4-(methylamino)nicotinate] gave an IC50 of less than 20 nM.
